# From PubChem BioAssay AID588456 (National Center for Advancing Translational Sciences (NCATS), 2011)
# Sequences of proteins named here, by UniProt entry; tags and fusion partners are left off.
# UniProt O89049, whole entry, looked up: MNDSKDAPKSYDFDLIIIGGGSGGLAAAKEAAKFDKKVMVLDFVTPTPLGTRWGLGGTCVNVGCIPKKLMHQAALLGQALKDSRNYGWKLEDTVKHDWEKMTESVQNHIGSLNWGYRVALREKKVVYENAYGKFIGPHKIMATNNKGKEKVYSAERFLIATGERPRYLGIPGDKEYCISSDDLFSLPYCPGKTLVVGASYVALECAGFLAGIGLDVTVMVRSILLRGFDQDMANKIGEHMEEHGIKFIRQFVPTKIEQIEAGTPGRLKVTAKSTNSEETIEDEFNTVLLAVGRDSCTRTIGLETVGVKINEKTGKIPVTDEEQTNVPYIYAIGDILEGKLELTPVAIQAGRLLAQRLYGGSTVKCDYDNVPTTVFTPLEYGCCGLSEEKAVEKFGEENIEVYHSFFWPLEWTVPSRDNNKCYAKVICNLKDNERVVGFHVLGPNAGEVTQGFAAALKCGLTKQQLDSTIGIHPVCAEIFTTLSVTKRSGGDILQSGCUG
# Several values for one entry are separate records, joined by “and”; a condition that tells them apart may be missing. Equal values may be shown once. The entries are a selection whose mix differs from that of the whole data set. Activity calls are given as the source filed them. Calls follow the shape of the dose curve; as a rule, active = well fitted inhibition curve with a large enough effect; inconclusive = small, poorly fitted or top-dose-only effect; inactive = no such curve, though single readings can be large or run the other way.
# Target: Thioredoxin reductase 1, cytoplasmic (Rattus norvegicus) (UniProt O89049)
# Assay: qHTS Assay for Substrates of Mammalian Selenoprotein Thioredoxin Reductase 1 (TrxR1): qHTS; also: nearly all actives have a fitted effect of over 50% in size
# Conditions: purified TrxR1 substrate turnover, NADPH consumption readout
# [1] = at 114 µM (top of the series) unless noted
# % is scaled to controls: 0 for no effect and ±100 for the full control effect.
smiles,measurement,setting,value
C[As](=O)(O)c1cccc(C(=O)O)c1,"activity change, negative = substrate turnover",[1],inactive: 26.5%
O=[As](O)(c1ccc(O)cc1)c1ccccc1O,"activity change, negative = substrate turnover",[1],inactive: 5.49%
O=[N+]([O-])c1ccc(-c2cc([N+](=O)[O-])c(O)c([N+](=O)[O-])c2)cc1,"activity change, negative = substrate turnover",[1],inactive: -23.2%
COc1cc(C(=O)NCC2(N3CCOCC3)CCCCC2)ccc1OCC(C)C,"activity change, negative = substrate turnover",[1],inactive: -12.8%
CC(C)NC(=O)NP(=O)(Oc1ccccc1)Oc1ccccc1,"activity change, negative = substrate turnover",[1],inactive: -2.15% [at 57.1 µM]
O=C(OC1CN2CCC1CC2)c1cccc2[nH]cnc12 (stereo not drawn),"activity change, negative = substrate turnover",[1],inactive: 12.3% [at 57.1 µM]
CCN(CC)C(=S)SC(NC=O)C(Cl)(Cl)Cl (stereo not drawn),"activity change, negative = substrate turnover",[1],inactive: 7.39% [at 57.1 µM]
O=[N+]([O-])c1cc([N+](=O)[O-])c(-c2ccn[nH]2)s1,"activity change, negative = substrate turnover",[1],inactive: -3.22%
COC(=O)C1(C)COP(=O)(N2CCCCCC2)OC1 (stereo not drawn),"activity change, negative = substrate turnover",[1],inactive: 3.17% [at 57.1 µM]
CC(C)c1ccc(OP(=O)(Nc2ccccn2)Oc2ccccc2F)cc1 (stereo not drawn),"activity change, negative = substrate turnover",[1],inactive: -0.0346%
ClCCSc1nnc(-c2cccnc2)o1,"activity change, negative = substrate turnover",[1],inactive: 8.63% [at 57.1 µM]
O=Cc1ccc(NCCCl)cc1,"activity change, negative = substrate turnover",[1],inactive: -7.72%
CCCCOc1ccc(C(=O)NCC2(N3CCCCC3)CCCCC2)cc1OC,"activity change, negative = substrate turnover",[1],inactive: -8.44%
Cc1cc(SC(NC(=O)c2ccccc2)C(Cl)(Cl)Cl)nc(C(C)C)n1 (stereo not drawn),"activity change, negative = substrate turnover",[1],inactive: -9.04%
CC1CCNP(=O)(N(CCCl)CCCl)O1 (stereo not drawn),"activity change, negative = substrate turnover",[1],inactive: 9.82% [at 57.1 µM]
CCOC(=O)Nc1ccc([As](=O)(O)O)c(O)c1,"activity change, negative = substrate turnover",[1],inactive: -6.26%
O=[N+]([O-])c1ccc(Nc2ccc(Oc3ccc([N+](=O)[O-])cc3[N+](=O)[O-])cc2)c([N+](=O)[O-])c1,"activity change, negative = substrate turnover",[1],inactive: 1.64% [at 2.29 µM]
O=P(Nc1ccccn1)(c1cccc2ccccc12)c1cccc2ccccc12,"activity change, negative = substrate turnover",[1],inactive: 1.37% [at 57.1 µM]
Cc1cc(SC(NC=O)C(Cl)(Cl)Cl)ncn1 (stereo not drawn),"activity change, negative = substrate turnover",[1],inactive: -6.05% [at 57.1 µM]
CCOC(=O)Nc1cccc([As](=O)(O)O)c1,"activity change, negative = substrate turnover",[1],inactive: -4.37%
O=C(COc1ccccc1)OC1CN2CCC1CC2 (stereo not drawn),"activity change, negative = substrate turnover",[1],inactive: -1.45% [at 57.1 µM]
O=C(Nc1ccncc1[N+](=O)[O-])c1ccc([N+](=O)[O-])cc1[N+](=O)[O-],"activity change, negative = substrate turnover",[1],inactive: -6.45%
COP1(=S)c2c(C)nn(CCC#N)c2N=C(c2ccc(F)cc2)N1C (stereo not drawn),"activity change, negative = substrate turnover",[1],inactive: 6.78%
CCOP(=O)(Nc1cccc2cccnc12)OCC,"activity change, negative = substrate turnover",[1],inactive: 3.85% [at 0.457 µM]
CCC(C)N(CC(C)C)C(=S)SC(NC(C)=O)C(Cl)(Cl)Cl (stereo not drawn),"activity change, negative = substrate turnover",[1],inactive: -9.48%
CCOC(=O)c1ccc(NC(=O)C(C)(CCl)SC)cc1 (stereo not drawn),"activity change, negative = substrate turnover",[1],inactive: 3.75%
O=C(OC1CN2CCC1CC2)c1cccc([N+](=O)[O-])c1 (stereo not drawn),"activity change, negative = substrate turnover",[1],inactive: 10.6% [at 57.1 µM]
O=[N+]([O-])c1cccc2n[nH]nc12,"activity change, negative = substrate turnover",[1],inactive: -4% [at 57.1 µM]
CC(=O)N1C2C3N(C(C)=O)C1C1N(C(C)=O)C(C(N1C(C)=O)N3C(C)=O)N2C(C)=O,"activity change, negative = substrate turnover",[1],inactive: 2.75%
Cc1ccc(NP(=O)(Oc2ccccc2)Oc2ccccc2)nc1,"activity change, negative = substrate turnover",[1],inactive: 8.81%
CCc1nc2c(n1)c1c(non1O)c1c2no[n+]1[O-],"activity change, negative = substrate turnover",[1],inactive: -15.2%
O=[N+]([O-])c1cc([N+](=O)[O-])c(CCNc2ccccc2)c([N+](=O)[O-])c1,"activity change, negative = substrate turnover",[1],inactive: 7.48% [at 57.1 µM]
COc1ccc(C2=NCC(CBr)S2)cc1 (stereo not drawn),"activity change, negative = substrate turnover",[1],inactive: 5.29% [at 57.1 µM]
COc1cc([N+](=O)[O-])c([N+](=O)[O-])cc1OC,"activity change, negative = substrate turnover",[1],inactive: -0.346%
CC(C)=N/N=C(\N)N[N+](=O)[O-],"activity change, negative = substrate turnover",[1],inactive: -0.687% [at 57.1 µM]
CN(C)C(=O)OCCc1n(C)cc[n+]1C,"activity change, negative = substrate turnover",[1],inactive: 6.87%
CC1CCN(C(=O)Oc2c(Cl)cc(Cl)c3cccnc23)CC1,"activity change, negative = substrate turnover",[1],inactive: -1.84%
Nc1ccc([As](=O)(O)c2ccc(N)cc2)cc1,"activity change, negative = substrate turnover",[1],inactive: 3.15%
C[N+]1=C2C=CC=CC=C2SC12C([N+](=O)[O-])=CC([N+](=O)[O-])=C[C-]2[N+](=O)[O-] (stereo not drawn),"activity change, negative = substrate turnover",[1],inactive: -11.4%
CCN(/C(=N/P(=O)(N1CCOCC1)N1CCOCC1)N1CCOCC1)c1ccc(OC)cc1,"activity change, negative = substrate turnover",[1],inactive: 3.71% [at 57.1 µM]
O=P(/N=c1/nc(-c2ccccc2)n(-c2ccccc2)s1)(Nc1ccccc1)Nc1ccccc1,"activity change, negative = substrate turnover",[1],inactive: -1.67%
O=C(Nc1cc([As](=O)(O)O)ccc1O)c1ccccc1,"activity change, negative = substrate turnover",[1],inactive: 0.401%
Cc1cc(C=O)ccc1N(CCCl)CCCl,"activity change, negative = substrate turnover",[1],inactive: 1.67%
O=P1(N(CCCl)CCCl)OCCCS1 (stereo not drawn),"activity change, negative = substrate turnover",[1],inactive: -2.46% [at 2.29 µM]
COC(=O)C1(C)COP(=O)(Nc2ccccc2)OC1 (stereo not drawn),"activity change, negative = substrate turnover",[1],inactive: 10.6% [at 57.1 µM]
O=[N+]([O-])c1cccc(NC2=NCC(CBr)S2)c1 (stereo not drawn),"activity change, negative = substrate turnover",[1],inactive: -0.245%
O=C(O)CNc1ccc([As](=O)(O)O)cc1,"activity change, negative = substrate turnover",[1],inactive: -14.4% [at 57.1 µM]
CC(C)(C)C(=O)NC(Sc1ccncn1)C(Cl)(Cl)Cl (stereo not drawn),"activity change, negative = substrate turnover",[1],inactive: 10.1%
O=[N+]([O-])c1ncn(CCn2ncnc2[N+](=O)[O-])n1,"activity change, negative = substrate turnover",[1],inactive: -3.33%
Cc1cc(SC(NC(=O)c2ccc(F)cc2)C(Cl)(Cl)Cl)ncn1 (stereo not drawn),"activity change, negative = substrate turnover",[1],inactive: -9.51%
CCOP(=O)(Nc1ccccc1)OCC,"activity change, negative = substrate turnover",[1],inactive: -2.03%
Cc1ccc(NP(=O)(Oc2ccccc2F)Oc2ccccc2F)nc1,"activity change, negative = substrate turnover",[1],inactive: 19.6%
CN(C(=O)Cc1ccc(Cl)c(Cl)c1)[C@H]1CCCC[C@@H]1N1CCCC1,"activity change, negative = substrate turnover",at 57.1 µM (top of the series),inactive: 2.9% and inactive: 12.9%
same,"activity change, negative = substrate turnover",at 114 µM (top of the series),inactive: 3.25%
CC(=O)Nc1ccc([As](=O)(O)O)cc1,"activity change, negative = substrate turnover",[1],inactive: 4.08%
O=C(O)c1ccccc1[As](=O)(O)O,"activity change, negative = substrate turnover",[1],inactive: 4.69%
CCCC1OP(N)(=O)OCC1CC (stereo not drawn),"activity change, negative = substrate turnover",[1],inactive: -7.32% [at 57.1 µM]
O=P(Nc1nc2ccc(Cl)cc2s1)(c1ccccc1)c1ccccc1,"activity change, negative = substrate turnover",[1],inactive: 4.92% [at 57.1 µM]
CCN(N=Nc1nonc1N)c1nonc1N,"activity change, negative = substrate turnover",[1],inactive: -1.67% [at 57.1 µM]
Nc1cccc2ccc([As](=O)(O)O)cc12,"activity change, negative = substrate turnover",[1],inactive: 43.9% [at 57.1 µM]
Nc1c(O)cc([N+](=O)[O-])cc1[N+](=O)[O-],"activity change, negative = substrate turnover",[1],inactive: -6.94%
COc1ccccc1OP(=O)(Nc1ccc(C)cn1)Oc1ccccc1OC,"activity change, negative = substrate turnover",[1],inactive: -2.17% [at 57.1 µM]
Cc1ccc(OP(=O)(Nc2nccs2)Oc2ccc(C)cc2)cc1,"activity change, negative = substrate turnover",[1],inactive: -5.34%
CN1CCCC(OC(=O)C(c2ccccc2)c2ccccc2)C1 (stereo not drawn),"activity change, negative = substrate turnover",[1],inactive: 7.08%
Clc1ccc(Cl)c(NC2=NCC(CBr)S2)c1 (stereo not drawn),"activity change, negative = substrate turnover",[1],inactive: 6.91% [at 57.1 µM]
NC(=O)c1cc([N+](=O)[O-])cc([N+](=O)[O-])c1N,"activity change, negative = substrate turnover",[1],inactive: -8.59%
O=[N+]([O-])c1cc2c(cc1[N+](=O)[O-])OCO2,"activity change, negative = substrate turnover",[1],inactive: 15.5%
CN(C(=O)Cc1ccc(Cl)c(Cl)c1)[C@H]1CCCC[C@H]1N1CCCC1,"activity change, negative = substrate turnover",[1],inactive: 0.0034%
Cc1ccc(N/C(=N/P(=O)(N2CCOCC2)N2CCOCC2)N2CCOCC2)cc1,"activity change, negative = substrate turnover",[1],inactive: -10.8% [at 57.1 µM]
Nc1cc(N)c2nonc2c1[N+](=O)[O-],"activity change, negative = substrate turnover",[1],inactive: 3.9% [at 57.1 µM]
CC(C)CC(=O)NC(Sc1ccc(Cl)cc1)C(Cl)(Cl)Cl (stereo not drawn),"activity change, negative = substrate turnover",[1],inactive: 2.61%
Oc1ccccc1CNc1ccccn1,"activity change, negative = substrate turnover",[1],inactive: 10.9%
O=C(NC(Sc1ccncn1)C(Cl)(Cl)Cl)c1ccccc1 (stereo not drawn),"activity change, negative = substrate turnover",[1],inactive: -14.7%
CCc1cc(O)c([N+](=O)[O-])c(C)c1[N+](=O)[O-],"activity change, negative = substrate turnover",[1],inactive: 8.06% [at 57.1 µM]
CC(C)(C)C(=O)NC(Sc1ccccc1)C(Cl)(Cl)Cl (stereo not drawn),"activity change, negative = substrate turnover",[1],inactive: 5.44% [at 57.1 µM]
O=P1(Nc2nc3ccc(Cl)cc3s2)COc2ccccc2O1 (stereo not drawn),"activity change, negative = substrate turnover",[1],inactive: -5.09% [at 57.1 µM]
CCOc1ccc(C2=NCC(CBr)S2)cc1 (stereo not drawn),"activity change, negative = substrate turnover",[1],inactive: -1.63%
CC(=O)Nc1ccc([As](=O)(O)O)c(O)c1,"activity change, negative = substrate turnover",[1],inactive: 8.57%
CC(=O)c1ccc(N2CC2c2ccncc2)cc1 (stereo not drawn),"activity change, negative = substrate turnover",[1],inactive: 4.77%
N#C/C(=C\c1ccc(N(CCBr)CCBr)cc1)C(N)=O,"activity change, negative = substrate turnover",[1],inactive: 5.2% [at 11.4 µM]
COC(=O)C1(C)COP(=O)(NCc2ccccc2)OC1 (stereo not drawn),"activity change, negative = substrate turnover",[1],inactive: 5.03% [at 11.4 µM]
Cc1ccccc1CN(C)C(=O)COC(=O)C(O)(c1ccccc1)c1ccccc1,"activity change, negative = substrate turnover",[1],inactive: -14%
C[C@H]1OP(=O)(Oc2ccccc2)C[C@@H]2O[C@@H]21 (stereo partly drawn),"activity change, negative = substrate turnover",[1],inactive: 4.8%
C[C@@H]1C=CCP(=O)(Oc2ccccc2)O1 (stereo partly drawn),"activity change, negative = substrate turnover",[1],inactive: 11.1% [at 57.1 µM]
O=P1(N(CCCl)CCCl)OCCC2CCCCN21 (stereo not drawn),"activity change, negative = substrate turnover",[1],inactive: 6.92% [at 2.29 µM]
CCNC(=S)/N=C(\N)N[N+](=O)[O-],"activity change, negative = substrate turnover",[1],inactive: 0.824%
O=C(NC1CCS(=O)(=O)C1)NP(=S)(Oc1ccccc1)Oc1ccccc1 (stereo not drawn),"activity change, negative = substrate turnover",[1],inactive: 3.59%
c1ccc(-c2nn[nH]n2)c(-c2nn[nH]n2)c1,"activity change, negative = substrate turnover",[1],inactive: 4.24% [at 57.1 µM]
O=[N+]([O-])c1cc([N+](=O)[O-])c2nc[nH]c2c1,"activity change, negative = substrate turnover",[1],inactive: -1.74%
CC(NC(=O)COC(=O)C(O)(c1ccccc1)c1ccccc1)c1ccccc1 (stereo not drawn),"activity change, negative = substrate turnover",[1],inactive: -2.77%
Cc1ccccc1OP(=O)(Nc1ccccn1)Oc1ccccc1C,"activity change, negative = substrate turnover",[1],inactive: -19.8% [at 57.1 µM]
O=c1c2cc([N+](=O)[O-])ccc2[nH]c2c([N+](=O)[O-])cc([N+](=O)[O-])cc12,"activity change, negative = substrate turnover",[1],inactive: -1.81% [at 57.1 µM]
CN(C)C(=O)Oc1noc2ccccc12,"activity change, negative = substrate turnover",[1],inactive: 12% [at 57.1 µM]
